Assay results taken from US20220218680A1, “TREATMENTS OF HEREDITARY ANGIOEDEMA” (KALVISTA PHARMACEUTICALS LIMITED, priority 2019, published 2022).

Protein sequences, listed by entry. Tags and fused reporters are not part of them. Residues count along the entry.
UniProt P03952, 20-390 partner limits assumed: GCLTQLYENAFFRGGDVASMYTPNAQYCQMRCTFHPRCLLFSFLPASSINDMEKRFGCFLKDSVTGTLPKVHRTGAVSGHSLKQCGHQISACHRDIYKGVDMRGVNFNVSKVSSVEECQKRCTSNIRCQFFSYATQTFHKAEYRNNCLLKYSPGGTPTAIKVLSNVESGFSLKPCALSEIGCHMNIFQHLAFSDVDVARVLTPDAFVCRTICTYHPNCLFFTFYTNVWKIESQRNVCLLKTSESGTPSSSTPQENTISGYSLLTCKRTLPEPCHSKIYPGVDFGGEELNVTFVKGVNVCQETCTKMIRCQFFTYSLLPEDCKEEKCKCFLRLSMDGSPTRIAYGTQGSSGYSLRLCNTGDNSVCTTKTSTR
UniProt P03952, 391-638 limits assumed: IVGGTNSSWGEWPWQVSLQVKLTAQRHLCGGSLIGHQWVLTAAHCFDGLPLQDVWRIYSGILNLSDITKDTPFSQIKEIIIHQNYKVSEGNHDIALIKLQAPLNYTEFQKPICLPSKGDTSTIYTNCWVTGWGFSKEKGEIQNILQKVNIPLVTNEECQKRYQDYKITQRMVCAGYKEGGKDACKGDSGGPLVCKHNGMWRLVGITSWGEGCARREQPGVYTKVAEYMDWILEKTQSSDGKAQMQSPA

Target: T1, Plasma Kallikrein (Homo sapiens, UniProt P03952)
T1 construct: PD measurements were determined in dextran sulfate (DXS) stimulated undiluted plasma using a fluorogenic enzyme assay; from tissue; host or cells: undiluted plasma of healthy male volunteers after oral dosing, stimulated ex vivo with dextran sulfate
Assay: Phase 1 SAD / food effect: ex vivo PKa catalytic activity in DXS-stimulated undiluted plasma
Protocol: PD measurements were determined in dextran sulfate (DXS) stimulated undiluted plasma using a fluorogenic enzyme assay and capillary based HK cleavage immunoassay.
The time until appearance of detectable amidolytic enzyme activity in DXS-stimulated plasma (lag time) was calculated from the catalytic activity assay. The detection sensitivity of the rate of catalytic activity in plasma based on using a Spark (Tecan) fluorimeter is a fluorescence increase to reach 1ΔF unit/sec.

inhibition of plasma kallikrein catalytic activity (160 mg, 300 mg and 600 mg, for a period of time): above 90% | average inhibition of plasma kallikrein catalytic activity (cohort 7 (300 mg), between 20 min and 4 hr post-dose): > 90% | inhibition of plasma kallikrein catalytic activity (cohort 8 (600 mg), between 30 min and 6 hr post-dose): > 90%
Compound: COCc1nn(Cc2ccc(Cn3ccccc3=O)cc2)cc1C(=O)NCc1nccc(OC)c1F [compound of Formula A, N-[(3-fluoro-4-methoxypyridin-2-yl)methyl]-3-(methoxymethyl)-1-({4-[(2-oxopyridin-1-yl)methyl]phenyl}methyl)pyrazole-4-carboxamide]
